Drawing on ChEMBL document CHEMBL5728057, “3-((hetero-)aryl)-8-amino-2-oxo-1,3-diaza-spiro-[4.5]-decane derivatives” (2020), this text covers Ki for 72 compounds.

Protein sequences, listed by entry. Tags and fused reporters are not part of them. Lines headed by an entry give the natural chain unless they say otherwise; changes in a name come on top.
UniProt P41146: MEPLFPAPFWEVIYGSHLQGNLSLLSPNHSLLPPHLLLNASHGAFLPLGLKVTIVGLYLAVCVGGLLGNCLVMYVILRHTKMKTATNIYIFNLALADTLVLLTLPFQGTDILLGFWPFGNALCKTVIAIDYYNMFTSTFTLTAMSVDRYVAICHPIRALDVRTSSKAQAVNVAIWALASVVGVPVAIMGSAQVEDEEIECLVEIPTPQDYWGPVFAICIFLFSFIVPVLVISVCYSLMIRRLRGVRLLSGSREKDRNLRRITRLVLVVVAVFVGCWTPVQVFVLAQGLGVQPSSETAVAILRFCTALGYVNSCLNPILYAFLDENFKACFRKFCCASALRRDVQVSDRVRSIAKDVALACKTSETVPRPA
UniProt P35372, whole entry, looked up: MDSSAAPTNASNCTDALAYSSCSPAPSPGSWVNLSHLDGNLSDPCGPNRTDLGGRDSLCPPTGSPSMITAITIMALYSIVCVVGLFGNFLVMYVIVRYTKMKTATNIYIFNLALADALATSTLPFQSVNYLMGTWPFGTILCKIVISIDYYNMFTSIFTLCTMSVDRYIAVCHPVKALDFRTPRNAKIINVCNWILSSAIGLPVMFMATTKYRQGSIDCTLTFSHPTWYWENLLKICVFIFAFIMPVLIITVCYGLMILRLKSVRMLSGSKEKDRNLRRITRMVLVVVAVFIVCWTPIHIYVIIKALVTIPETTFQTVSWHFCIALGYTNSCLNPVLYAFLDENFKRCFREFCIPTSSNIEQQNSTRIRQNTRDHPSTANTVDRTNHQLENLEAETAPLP

One test has as its target Nociceptin receptor (Homo sapiens, UniProt P41146). Nature of the test: Human Nociceptin/Orphanin FQ Peptide (hNOP) Receptor Binding Assay: The hNOP receptor binding assay was performed as homogeneous SPA-assay (scintillation proximity assay) using the assay buffer 50 mM TRIS-HCl. 10 mM MgCl2. 1 mM EDTA (pH 7.4). The final assay volume (250 μl/well) included 0.5 nM of [leucyl-3H]nociceptin as ligand (PerkinElmer Life Sciences. Inc. Boston. Mass. USA). and either test.

The target in a further test is Mu-type opioid receptor (Homo sapiens, UniProt P35372). The test is described as follows: Human Mu-Opioid Peptide (hMOP) Receptor Binding Assay: The hMOP receptor binding assay was performed as homogeneous SPA-assay (scintillation proximity assay) using the assay buffer 50 mM TRIS-HCl (pH 7.4) supplemented with […] bovine serum albumin (Sigma-Aldrich Co. St. Louis. Mo.). The final assay volume (250 l/well) included 1 nM of [N-allyl-2.3-3H]naloxone as ligand (PerkinElmer Life Sc.

At Nociceptin receptor, `CN[C@]1(c2ccccc2)CC[C@]2(CC1)CN(c1cnc(C#N)nc1)C(=O)N2CC1(O)CCC1` displayed an inhibition constant (Ki) of 8 nM. The same measure, in the same setting: the result for `CN(C)[C@]1(c2cccc(F)c2)CC[C@]2(CC1)CN(c1ccc(S(C)(=O)=O)cn1)C(=O)N2CC1CC1` reads 5 nM; that for `CN[C@]1(c2ccccc2)CC[C@]2(CC1)CN(c1ccc(C#N)cc1OC)C(=O)N2CC1(O)CCC1`, 24 nM; that for `CN[C@]1(c2ccccc2)CC[C@]2(CC1)CN(c1ccc(S(=O)(=O)N(C)C)cc1C(F)(F)F)C(=O)N2CC1CCC1`, 11 nM.

At Nociceptin receptor, `CN(C)[C@]1(c2ccccc2)CC[C@]2(CC1)CN(c1cccc(C(F)(F)F)c1)C(=O)N2` displayed a Ki of 27 nM. For `Cc1cc(F)cc([C@]2(N(C)C)CC[C@@]3(CC2)CN(c2cnc(C(F)(F)F)cc2C)C(=O)N3)c1`, the Ki at Nociceptin receptor is 14 nM.

As for `CN(C)[C@]1(c2ccccc2)CC[C@]2(CC1)CN(c1cccc(OC(F)(F)F)c1)C(=O)N2`, the affinity on Nociceptin receptor corresponds to a Ki of 42 nM. `CCCNC(=O)CN1C(=O)N(c2cnc(C#N)nc2)C[C@]12CC[C@](c1ccccc1)(N(C)C)CC2` registered a Ki on Nociceptin receptor of 119 nM. Still for that read-out and setting: the result for `CN(C)[C@]1(c2ccccc2)CC[C@]2(CC1)CN(c1c[nH]c3ccccc13)C(=O)N2` reads 13 nM; that for `CN(C)[C@]1(c2ccccc2)CC[C@]2(CC1)CN(c1cnc(-c3ccc(F)cc3)nc1)C(=O)N2`, 13 nM.

Consider `CN(C)[C@]1(c2ccccc2)CC[C@]2(CC1)CN(c1cnc(-c3cc(F)c(F)c(F)c3)nc1)C(=O)N2`, for which the affinity at Nociceptin receptor corresponds to a Ki of 335 nM. On the same count and under the same terms, the result for `CN[C@]1(c2cccc(F)c2)CC[C@]2(CC1)CN(c1ccc(S(C)(=O)=O)cn1)C(=O)N2CC1CC1` reads 8 nM; that for `CN(C)[C@]1(c2ccccc2)CC[C@]2(CC1)CN(c1ccc(OC(F)(F)F)cc1F)C(=O)N2`, 53 nM. Still for that read-out and setting: the result for `Cc1cc(N2CCNC(=O)C2)ncc1N1C[C@]2(CC[C@](c3ccccc3)(N(C)C)CC2)NC1=O` reads 19 nM.

In turn, `COC(=O)c1ccc(N2C[C@]3(CC[C@](c4ccccc4)(N(C)C)CC3)N(CC3CCC3)C2=O)cc1` registered a Ki on Nociceptin receptor of 8 nM. On the same count and under the same terms, the result for `CC(=O)n1cc(N2C[C@]3(CC[C@](c4ccccc4)(N(C)C)CC3)NC2=O)c2ccccc21` reads 11 nM. In turn, `COC(=O)c1ccc(N2C[C@]3(CC[C@](c4ccccc4)(N(C)C)CC3)NC2=O)cc1` returned a Ki on Mu-type opioid receptor of 5120 nM. In turn, `COc1cnc(N2C[C@]3(CC[C@](c4ccccc4)(N(C)C)CC3)N(CC3CCC3)C2=O)cn1` had a Ki at Mu-type opioid receptor of 260 nM.

Take `CN(C)[C@]1(c2ccccc2)CC[C@]2(CC1)CN(c1ncc(F)cn1)C(=O)N2CC1CCC1`: the Ki on Mu-type opioid receptor is 38.5 nM. As for `Cc1nc(N2CCNC(=O)C2)ncc1N1C[C@]2(CC[C@](c3ccccc3)(N(C)C)CC2)NC1=O`, at Mu-type opioid receptor, the affinity, expressed as Ki, was 4090 nM. Same read-out and setting: the result for `CN(C)[C@]1(c2ccccc2)CC[C@]2(CC1)CN(c1cc(C#N)ncn1)C(=O)N2CC1CCC1` reads 170 nM; that for `CC(=O)N1CCN(c2cc(C)c(N3C[C@]4(CC[C@](c5ccccc5)(N(C)C)CC4)NC3=O)cn2)CC1`, 2980 nM. In turn, `CN[C@]1(c2ccccc2)CC[C@]2(CC1)CN(c1cnc(C#N)nc1OC)C(=O)N2CC1(O)CCC1` returned a Ki on Mu-type opioid receptor of 170 nM. For the compound `CN1CCN(c2ccc(N3C[C@]4(CC[C@](c5ccccc5)(N(C)C)CC4)NC3=O)cn2)CC1=O`, the Ki on Mu-type opioid receptor was found to be 3840 nM. On the same count and under the same terms, the result for `CN(C)[C@]1(c2ccccc2)CC[C@]2(CC1)CN(c1cnc(C(N)=O)nc1)C(=O)N2CC1CCC1` reads 12 nM.

On Mu-type opioid receptor, `CN(C)[C@]1(c2ccccc2)CC[C@]2(CC1)CN(c1ccccc1C(N)=O)C(=O)N2CC1CCC1` displayed a Ki of 41 nM. Still for that read-out and setting: the result for `CN(C)[C@]1(c2ccccc2)CC[C@]2(CC1)CN(c1cnc(C(=O)N3CCNCC3)nc1)C(=O)N2` reads 2520 nM; that for `CN(C)[C@]1(c2ccccc2)CC[C@]2(CC1)CN(c1ccc(-c3cccc4c3CC(=O)N4)nc1)C(=O)N2`, 1240 nM; that for `CN(Cc1ccccc1)c1ncc(N2C[C@]3(CC[C@](c4ccccc4)(N(C)C)CC3)NC2=O)cn1`, 1910 nM. Still for that read-out and setting: the result for `CN(C)[C@]1(c2ccccc2)CC[C@]2(CC1)CN(c1cnccc1S(C)(=O)=O)C(=O)N2` reads 4000 nM; that for `CC(=O)N1CCN(c2ncc(N3C[C@]4(CC[C@](c5ccccc5)(N(C)C)CC4)NC3=O)cn2)CC1`, 5840 nM. Take `CC(=O)n1ccc2c(N3C[C@]4(CC[C@](c5ccccc5)(N(C)C)CC4)NC3=O)cccc21`: the Ki at Mu-type opioid receptor came to 4800 nM.

Compound `CN[C@]1(c2ccccc2)CC[C@]2(CC1)CN(c1cnc(C#N)nc1OC)C(=O)N2CC1CCC1` registered a Ki at Mu-type opioid receptor of 120 nM. The same measure, in the same setting: the result for `CN(C)[C@]1(c2ccccc2)CC[C@]2(CC1)CN(c1ccc(C(N)=O)cc1)C(=O)N2CC1CCC1` reads 14.5 nM; that for `COCCCN1C(=O)N(c2cnc(C#N)nc2OC)C[C@]12CC[C@](c1ccccc1)(N(C)C)CC2`, 335 nM. The same measure, in the same setting: the result for `C/C=C(\C)[C@]1(N(C)C)CC[C@@]2(CC1)CN(c1cnc(NCC(N)=O)nc1)C(=O)N2` reads 3510 nM.

The compound `CN[C@]1(c2ccccc2)CC[C@]2(CC1)CN(c1ccc(S(C)(=O)=O)cc1F)C(=O)N2CC1CC1` came in with a Ki on Mu-type opioid receptor of 300 nM. Same read-out and setting: the result for `CN(C)[C@]1(c2ccccc2)CC[C@]2(CC1)CN(c1cnc(C#N)nc1)C(=O)N2CC1(C)CCC1` reads 220 nM; that for `Cc1cc(C(F)(F)F)ncc1N1C[C@]2(CC[C@](c3ccccc3)(N(C)C)CC2)N(CC(=O)N2CCCC2)C1=O`, 2870 nM. As for `CN(CCO)c1ncc(N2C[C@]3(CC[C@](c4ccccc4)(N(C)C)CC3)NC2=O)cc1C(F)(F)F`, at Mu-type opioid receptor, the Ki turned out to be 1800 nM. The same measure, in the same setting: the result for `CN(C)[C@]1(c2ccccc2)CC[C@]2(CC1)CN(c1cccc(C(N)=O)c1)C(=O)N2CC1CCC1` reads 18 nM. For the compound `CN(C)[C@]1(c2ccccc2)CC[C@]2(CC1)CN(c1c(F)cc(C(N)=O)cc1F)C(=O)N2`, affinity at Mu-type opioid receptor was put at a Ki of 2100 nM. Same read-out and setting: the result for `CN(C)[C@]1(c2ccccc2)CC[C@]2(CC1)CN(c1ncc(C(F)(F)F)cc1F)C(=O)N2` reads 3780 nM; that for `COc1ccc(N2C[C@]3(CC[C@](c4ccccc4)(N(C)C)CC3)N(CC3CCC3)C2=O)c(C#N)c1`, 47 nM. With `CN(C)[C@]1(c2ccccc2)CC[C@]2(CC1)CN(c1cnc(C(F)(F)F)nc1)C(=O)N2CC1(O)CCC1`, on Mu-type opioid receptor, the Ki is 41 nM. With `COc1ncc(N2C[C@]3(CC[C@](c4ccccc4)(N(C)C)CC3)N(CC3(O)CCC3)C2=O)cn1`, at Mu-type opioid receptor, the Ki was found to be 32.5 nM.

The compound `CN(C)[C@]1(c2ccccc2)CC[C@]2(CC1)CN(c1cnc(N3CCOCC3)c(C(F)(F)F)c1)C(=O)N2` showed a Ki on Mu-type opioid receptor of 2580 nM. Same read-out and setting: the result for `CN(C)[C@]1(c2ccccc2)CC[C@]2(CC1)CN(c1ccccc1S(C)(=O)=O)C(=O)N2` reads 2260 nM; that for `COCCOCCOCCOCCNC(=O)c1ncc(N2C[C@]3(CC[C@](c4ccccc4)(N(C)C)CC3)N(CC3(O)CCC3)C2=O)cn1`, 78 nM; that for `CN(C)C(=O)c1ccc(N2C[C@]3(CC[C@](c4ccccc4)(N(C)C)CC3)N(CC3CCC3)C2=O)cc1`, 10.4 nM.

As to `CN(C)[C@]1(c2ccccc2)CC[C@]2(CC1)CN(c1ncc(-c3cccc4c3CC(=O)N4)cc1F)C(=O)N2`, the Ki at Mu-type opioid receptor worked out at 1660 nM. On the same count and under the same terms, the result for `CN(C)C(=O)CN1C(=O)N(c2cnc(C#N)nc2)C[C@]12CC[C@](c1ccccc1)(N(C)C)CC2` reads 775 nM. On the same count and under the same terms, the result for `CN(C)[C@]1(c2ccccc2)CC[C@]2(CC1)CN(c1cnc(N3CCOCC3)nc1C(F)(F)F)C(=O)N2` reads 7860 nM; that for `CN(C)[C@]1(c2ccccc2)CC[C@]2(CC1)CN(c1cnc(C#N)cn1)C(=O)N2CC1CCC1`, 250 nM; that for `COC1(CCN2C(=O)N(c3cnc(C)nc3)C[C@]23CC[C@](c2ccccc2)(N(C)C)CC3)CCC1`, 20 nM. The same measure, in the same setting: the result for `CN(C)[C@]1(c2ccccc2)CC[C@]2(CC1)CN(c1ccc(S(C)(=O)=O)cc1C#N)C(=O)N2CC1CCC1` reads 23 nM.

In the case of `CN(C)[C@]1(c2ccccc2)CC[C@]2(CC1)CN(c1cnc3c(ccn3S(C)(=O)=O)c1)C(=O)N2`, the affinity on Mu-type opioid receptor, expressed as Ki, was 1480 nM.

`COC(=O)c1cccc(N2C[C@]3(CC[C@](c4ccccc4)(N(C)C)CC3)NC2=O)c1` had a Ki on Mu-type opioid receptor of 2480 nM. On the same count and under the same terms, the result for `CN(C)[C@]1(c2ccccc2)CC[C@]2(CC1)CN(c1cccc3cnccc13)C(=O)N2` reads 2320 nM; that for `CN(C)[C@]1(c2ccccc2)CC[C@]2(CC1)CN(c1cnc(C#N)nc1)C(=O)N2CC1(O)CCC1`, 39 nM.

At Mu-type opioid receptor, `CN(C)[C@]1(c2ccccc2)CC[C@]2(CC1)CN(c1ccnc(C#N)n1)C(=O)N2CC1CCC1` returned a Ki of 38.5 nM. On the same count and under the same terms, the result for `COC(=O)c1cc(C)c(N2C[C@]3(CC[C@](c4ccccc4)(N(C)C)CC3)N(CC3CCC3)C2=O)cn1` reads 55 nM; that for `CN(C)[C@]1(c2ccccc2)CC[C@]2(CC1)CN(c1nc(-c3ccccc3)cs1)C(=O)N2`, 1410 nM; that for `CN(C)[C@]1(c2ccccc2)CC[C@]2(CC1)CN(c1ccccc1C#N)C(=O)N2`, 1880 nM. On the same count and under the same terms, the result for `CN[C@]1(c2ccccc2)CC[C@]2(CC1)CN(c1cnc(N3CCOCC3)c(C(F)(F)F)c1)C(=O)N2` reads 6910 nM; that for `Cc1cc(N2C[C@]3(CC[C@](c4ccccc4)(N(C)C)CC3)NC2=O)cnc1N1CCOCC1`, 5640 nM; that for `Cc1cnc(N2C[C@]3(CC[C@](c4ccccc4)(N(C)C)CC3)NC2=O)cn1`, 3130 nM.

For the compound `CN(C)[C@]1(c2cccs2)CC[C@]2(CC1)CN(c1cnc(-c3cccc4c3CC(=O)N4)nc1)C(=O)N2`, affinity at Mu-type opioid receptor was put at a Ki of 5260 nM. Take `CN(C)[C@]1(c2ccccc2)CC[C@]2(CC1)CN(c1ccc(C(N)=O)cc1)C(=O)N2`: the Ki on Mu-type opioid receptor amounted to 2220 nM. On the same count and under the same terms, the result for `CN(C)[C@]1(c2ccccc2)CC[C@]2(CC1)CN(c1ncc(C(N)=O)cn1)C(=O)N2CC1CCC1` reads 45 nM; that for `COc1ncc(N2C[C@]3(CC[C@](c4ccccc4)(N(C)C)CC3)NC2=O)cn1`, 5690 nM; that for `CN(C)[C@]1(c2cccc(F)c2)CC[C@]2(CC1)CN(c1cnc(C(F)(F)F)nc1)C(=O)N2CC1CC1`, 3630 nM.
